Only some compounds are listed: those with a hit (about 2.3% of all), similar ones and a draw of the others.
A549 viability – counter-screen for Nrf2 inhibitors: cytotoxicity in A549 cells. Potency, µM (doses to about 46 µM), hits mostly inhibitors. A549 ARE-Fluc cells, CellTiter-Fluor viability, 18-24 h. 0.16% of 390,000 active. AID 504648
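A549 ARE-Fluc cells in 5% FBS OPTI-MEM, 5000 cells/well, rested 2 h then exposed to compounds in concentration-response for 18-24 h at 37 °C. Viability by CellTiter-Fluor fluorescence (Ex 405/Em 525) after 30 min; luciferase luminescence (BugLite, 15 min, RT) read afterwards.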
Mito fusion yeast – inhibitors of mitochondrial division or activators of mitochondrial fusion. Potency, µM (top dose mostly 46.1 µM), most hits filed as activators. S. cerevisiae fusion-defective mutant growth rescue, CellTiterGlo 48 h. 0.23% of 320,000 active; also: nearly all actives have a fitted effect of over 45% in size
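Growth-rescue viability read-out: after 48 h at the non-permissive 37C in glycerol/ethanol YPEG, yeast mitochondrial fusion mutants are measured by CellTiterGlo luminescence; compounds (23 nl pinned per well) restoring growth score as division inhibitors or fusion activators.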
Nrf2 inh – Nrf2 pathway inhibition; A549 ARE-Fluc reporter, luciferase luminescence, 18-24 h; 2.1% of 360,000 active; Potency, µM (titrated, usually from 46 µM), usual class: inhibitors; also: nearly all actives have a fitted effect of over 60% in size
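Concentration-response testing used A549 ARE_Fluc cells at 5000 cells/well. Following an 18-24 h compound incubation, viability was read by fluorescence (Ex 405/Em 525) and luciferase output by luminescence.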
miR-21 reporter – miR-21 reporter, rising signal; HeLa miR-21 FLuc reporter, luciferase, 48 h; Potency, µM (highest dose often 38.3 µM); 340,000 tested, under 10 active; AID 2288; active = well fitted rising curve with a large enough effect; inconclusive = small, poorly fitted or top-dose-only effect; inactive = no such curve, though single readings can be large or run the other way;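 further: miR-21 action dims this reporter so a rising signal means less miR-21 action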
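HeLa miR-21-FLuc reporter line, endogenous miR-21; 2000 cells/well in DMEM/10% FBS; compound titration up to ~40uM final, 48 h, 37 degree Celsius; luciferase detection reagent, 15 min lysis, CCD luminescence.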
Nrf2 activator – activates Nrf2 signaling | AID 624171 | 0.31% of 410,000 active | AREc32 ARE-luciferase reporter (MCF7-derived line), luminescence, 24 h | Potency, µM (highest dose often 46.1 µM), actives largely listed as activators; also: nearly all actives have a fitted effect of over 65% in size
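Quantitative high-throughput format: AREc32 reporter cells, 1000 per well, received compound by pin transfer and were incubated 24 hr at 37 deg C, 5% CO2, before Steady-Glo luminescence detection.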
Large screens that a line does not name were inactive. Unless noted, calls follow the shape of the dose curve; as a rule, active = well fitted curve in the direction sought with a large enough effect; inconclusive = small, poorly fitted or top-dose-only effect, or another doubt; inactive = no such curve, though single readings can be large; an effect the other way counts as inactive or inconclusive.

COc1ccccc1-c1csc(C(O)(c2ccccc2)C(F)(F)F)n1 (stereo unspecified)	none (no result: A549 viability, Mito fusion yeast, Nrf2 inh, miR-21 reporter)
Cc1ncccc1C(=O)N1CCCC(CCC(=O)N2CCN(c3ccccn3)CC2)C1 (stereo unspecified)	none
Cc1ccccc1C(=O)N1CCCC(CCC(=O)N2CCN(c3ccccn3)CC2)C1 (stereo unspecified)	Nrf2 inh 23.1µM
COc1ccc(-c2nc3ccc(NC(C)=O)cc3c(=O)n2Cc2cccc(Cl)c2)cc1COc1ccc(NC(C)=O)cc1	Nrf2 inh inconclusive (no result: Mito fusion yeast, miR-21 reporter, Nrf2 activator)
CCCCCCn1c(C)nc2c(c1=O)c1nc3ccccc3nc1n2/N=C/c1ccco1	A549 viability inconclusive, Nrf2 inh 23.1µM
O=c1c2c3nc4ccccc4nc3n(/N=C/c3ccco3)c2ncn1CCC1=CCCCC1	none
Cc1ccnc(Sc2ccc([N+](=O)[O-])cc2[N+](=O)[O-])n1	A549 viability inconclusive, Nrf2 inh inconclusive, miR-21 reporter inconclusive
Cc1ccc(Sc2ccc([N+](=O)[O-])cc2[N+](=O)[O-])nc1	Nrf2 activator 15.8µM
COc1ccc(C(=O)CC(Nc2ccc([N+](=O)[O-])cc2)c2ccc(Cl)cc2)cc1 (stereo unspecified)	A549 viability inconclusive, Mito fusion yeast inconclusive, Nrf2 inh 6.51µM
COc1ccc(C(=O)CC(=O)C(=O)Nc2ccc(Cl)cc2)cc1	none
CCOc1ccc(C(=O)c2cn(Cc3ccc(Cl)cc3)c3cc(OC)c(OC)cc3c2=O)cc1	A549 viability 14.6µM, Nrf2 inh inconclusive (no result: Mito fusion yeast)
O=C(c1ccc2c(c1)OCO2)c1cn(Cc2ccc(Cl)cc2)c2ccc(F)cc2c1=O	Nrf2 inh inconclusive (no result: Mito fusion yeast)
Cc1ccc2c(c1)c(=O)c(C(=O)c1ccc3c(c1)OCO3)cn2Cc1ccc(Cl)cc1	Nrf2 inh 23.1µM (no result: Mito fusion yeast)
COc1ccc(Cn2cc(C(=O)c3ccc(Cl)cc3)c(=O)c3cc4c(cc32)OCO4)cc1	A549 viability inconclusive, Nrf2 inh inconclusive (no result: Mito fusion yeast)
O=C1c2ccccc2C(=O)N1c1cccc(=O)[nH]1	none (no result: Mito fusion yeast, miR-21 reporter, Nrf2 activator)
COc1ccc(-c2oc3ccc(N4CCOCC4)cc3c2C#CCO)cc1	Nrf2 inh 18.4µM (no result: Mito fusion yeast, miR-21 reporter)
COc1ccc(-c2sc3ccc(N4CCOCC4)cc3c2C#CC(C)(C)O)cc1	none (no result: miR-21 reporter)
COc1ccc(-c2ccc3oc(-c4ccc(OC)cc4)c(C#CCO)c3c2)cc1	Nrf2 inh 8.2µM (no result: Mito fusion yeast, miR-21 reporter)
COc1ccc(-c2ccc3oc(-c4ccc(OC)cc4)c(-c4ccc(OC)cc4)c3c2)cc1	none (no result: Mito fusion yeast, miR-21 reporter)
c1cnc2c(c1)ccc1cccnc12	A549 viability inconclusive, Mito fusion yeast inconclusive, Nrf2 inh 5.8µM
O=Cc1ccc2ccc3cccnc3c2n1	none
CCCN1CCN(C(=S)Nc2ccccc2C(F)(F)F)CC1	Nrf2 inh 16.4µM
O=C(Nc1ccc(F)cc1)Nc1ccc(N2CCCC2)c(S(=O)(=O)Nc2ccccc2Cl)c1	A549 viability inconclusive, Nrf2 inh 23.1µM, miR-21 reporter inconclusive
O=C(Nc1ccc(Cl)c(Cl)c1)Nc1ccc(N2CCCC2)c(S(=O)(=O)Nc2ccccc2Cl)c1	A549 viability inconclusive, Nrf2 inh 13µM, miR-21 reporter inconclusive
CCn1nc(C)c(CNC(=O)c2cc(COc3ccc(F)cc3Cl)on2)c1C	none
CCn1nc(C)c(CNC(=O)c2cc(COc3ccc(C)nc3)on2)c1C	Nrf2 inh 23.1µM
Cc1ccc(-c2nc(SCCOc3ccccc3C)n3[nH]c(=O)cc3n2)cc1	Nrf2 inh inconclusive (no result: Mito fusion yeast)
Cc1cc(Nc2ncc(Cl)cc2Cl)n(-c2ccccc2C)n1	Mito fusion yeast 22.4µM
Cc1ccc(-n2nc(C)cc2Nc2ncc(Cl)cc2Cl)cc1	none
O=C(CSc1nc(-c2ccccc2)nc2c1CCCC2)c1ccc(F)cc1	none (no result: Mito fusion yeast)
CC(C)(C)NC(=O)COC(=O)CNC(=O)C1CCCCC1	none (no result: Mito fusion yeast, miR-21 reporter, Nrf2 activator)
O=C1C(=O)N(C2CCN(C(=O)c3ccccc3Cl)CC2)CCN1Cc1ccc(F)cc1	none (no result: Mito fusion yeast)
OC(COc1ccccc1)CSc1ncn[nH]1 (stereo unspecified)	none (no result: Nrf2 inh)
CC(C)(C)c1ccc(OCC(O)CSc2ncn[nH]2)cc1 (stereo unspecified)	Nrf2 inh 14.6µM
COc1ccccc1NC(=O)c1sc(Cl)nc1C	Nrf2 activator 11.2µM
O=C(NC1CCCC1)C(c1ccc(F)cc1)N(Cc1ccccc1)C(=O)c1csnn1 (stereo unspecified)	none
CC(C)CCN(C(=O)c1csnn1)C(C(=O)NC1CCCC1)c1ccc(F)cc1 (stereo unspecified)	A549 viability 18.4µM, Nrf2 inh 23.1µM
CC(Oc1ccccc1)C(=O)Nc1nc2ccc(S(N)(=O)=O)cc2s1 (stereo unspecified)	none (no result: Mito fusion yeast, Nrf2 inh)
Cc1noc(C)c1COC(=O)c1ccccc1NC(=O)Cc1ccccc1	Nrf2 inh 14.6µM (no result: A549 viability)
C=C1CCC2C(C)(C)[C@H](O)CC[C@@]2(C)[C@@H]1COc1cc(=O)oc2ccccc12 (stereo partly specified)	A549 viability inconclusive, Mito fusion yeast 14.1µM, Nrf2 inh inconclusive
C=C1CCC2C(C)(C)[C@@H](O)CC[C@@]2(C)[C@@H]1COc1ccc2ccc(=O)oc2c1 (stereo partly specified)	Nrf2 inh inconclusive
Cc1ccc(-n2c(O)c(C=Nc3cc(C)on3)c3ccccc3c2=O)c(C)c1	A549 viability inconclusive, Mito fusion yeast inconclusive, Nrf2 inh 23.1µM
Cc1cc(C(=O)N2CCN(c3ccccc3)CC2)c2c(C)nn(-c3cccc(F)c3)c2n1	Nrf2 inh inconclusive (no result: Mito fusion yeast)
O=[N+]([O-])c1ccc(/C=N/Nc2nc(N3CCCCC3)nc(N3CCCCC3)n2)o1	A549 viability inconclusive, Nrf2 inh 18.4µM
O=[N+]([O-])c1ccc(Nc2nc(N/N=C/c3cccc(F)c3)nc(N3CCCC3)n2)cc1	Mito fusion yeast 15.8µM, Nrf2 inh inconclusive
COc1c(/C=N/Nc2nc(N3CCCCC3)nc(N3CCCCC3)n2)cccc1[N+](=O)[O-]	Nrf2 inh inconclusive
Cc1ccc(C)c(N2CCN(C(=O)c3ccc(Cn4c(=O)[nH]c5ccccc5c4=O)cc3)CC2)c1	Nrf2 inh 7.31µM, miR-21 reporter inconclusive
COC(=O)c1nc(Nc2cc(F)cc(F)c2)nc(NC2CCCC2)n1	none (no result: Mito fusion yeast, miR-21 reporter, Nrf2 activator)
Cc1nn(C)cc1C(C)NC(=O)c1cc(COc2cccc3cnccc23)on1 (stereo unspecified)	Nrf2 inh 10.3µM
O=C(O)Cc1ccc(NC(=O)COc2ccc3ccccc3c2)cc1	none
O=C(COc1ccc2ccccc2c1)Nc1ccc(Cc2ccncc2)cc1	Nrf2 inh 14.6µM
Cc1ccc(C(=O)COC(=O)C(Cc2c[nH]c3ccccc23)NC(=O)c2ccc(C(C)(C)C)cc2)cc1 (stereo unspecified)	none (no result: Mito fusion yeast, Nrf2 inh)
O=C(CCNc1cc(Cl)cc(Cl)c1)c1cccs1	Nrf2 activator 6.31µM
Cc1ccc(-c2nnc3ccc(SCC(=O)c4ccccc4)nn23)cc1	none (no result: Mito fusion yeast, miR-21 reporter, Nrf2 activator)
Cc1cc([N+](=O)[O-])ccc1NCc1ccccc1	A549 viability inconclusive, Nrf2 inh 18.4µM
